Assay type in all cases: in vivo
Assay [1] has as its system mice deficient in the μ opioid receptor (−/−) and their wild-type congeners (+/+). As to the kind of experiment: Conditioned preference of position induced by morphine. The settings on record: 3 mg/kg, subcutaneous.
Assay [2] has as its system mutant mice deficient in the μ opioid receptor (−/−) and their wild-type congeners (+/+). As to the kind of experiment: Tail immersion test (54° C.), antinociceptive response to morphine. The following applies: 2 and 6 mg/kg, subcutaneous.
The test system is the same in assay [3]. As to the kind of experiment: Hot plate test (licking and jumping), antinociceptive response to morphine. The settings on record: 2 and 6 mg/kg, subcutaneous.

For the compound `CN1CC[C@]23c4c5ccc(O)c4O[C@H]2[C@@H](O)C=C[C@H]3[C@H]1C5` [morphine], the “conditioned preference of position” value was “induces a conditioned preference of position” in assay [1] (wild-type mice) and “not observed” in assay [1] (μ receptor −/− mutant mice). Also, the “antinociceptive response, latency of withdrawal of the tail” value is recorded as “significant antinociceptive responses” in assay [2] (wild-type mice) and “no antinociceptive response” in assay [2] (μ receptor −/− mutants). Also, the figures for the “antinociceptive response, latency of licking and jumping” value in assay [3] (wild-type mice) and in assay [3] (μ receptor −/− mutants) were “significant antinociceptive responses” and “no antinociceptive response”, respectively.
